Measurements as given in US20250276977A1, “TYK2 INHIBITORS AND USES THEREOF” (Alumis Inc., priority 2019, published 2025).

Chains of the proteins cited; added tags and fusions are not shown. Residues count along the entry.
UniProt O60674, 849-1124 limits assumed: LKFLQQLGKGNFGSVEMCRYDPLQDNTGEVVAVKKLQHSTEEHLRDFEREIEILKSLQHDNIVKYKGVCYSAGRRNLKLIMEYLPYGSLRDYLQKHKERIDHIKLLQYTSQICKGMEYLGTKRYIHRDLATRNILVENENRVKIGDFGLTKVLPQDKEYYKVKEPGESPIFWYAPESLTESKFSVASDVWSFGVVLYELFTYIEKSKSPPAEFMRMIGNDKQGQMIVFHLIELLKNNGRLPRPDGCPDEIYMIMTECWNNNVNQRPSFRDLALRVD

Target: T1, JAK2 (JH1 domain) (Homo sapiens, UniProt O60674)
T1 construct: inferred from 'similar to the method' for TYK2 JH2; DiscoverX (KINOMEscan)
Test: JAK2 JH1 domain binding assay (KINOMEscan)

## [2H]C([2H])([2H])NC(=O)c1nnc(NC(=O)C2CC2)cc1Nc1cccc(-c2ncn(C)n2)c1OC [control, BMS-986165, reference compound]
  Kd: 2100 nM
